The test system of the experiment is HeLa pLuc705 cells. Kind of experiment: Splicing correction luciferase assay (Kole's assay). To be noted: PF14 dissolved in dimethyl formamide or tetrahydrofuran with ethanol or 2-propanol (1/9); 100 nM SCO-705, 500 nM PF14, 24 h; FIG. 4.

[ ]: non-standard residue; d: D form. The star is where a group is joined. Stearoyl = CCCCCCCCCCCCCCCCCC(=O)*; Orn = NCCC[C@H](N)C(=O)O

As for “PepFect 14 (Stearoyl-AGYLLGKLL[Orn][Orn]LAAAAL[Orn][Orn]LL-NH2) [PF14]”, the “splicing redirection compared to water-solubilised CPP” value was “more efficiently redirect splicing”.

The record behind these values is patent US20240139115A1, “Novel Method for Preparation of Nanoparticles Comprising Cell Penetrating Peptides” (CELLPEPT SWEDEN AB, priority 2021, published 2024).
